{
  "source": "patent US7339026B2",
  "about": "“mda-9 protein” (The Trustees of Columbia University In the City of New York, priority 1996, dated 2008)",
  "test_system": "H0-1 cells",
  "assay": "Effect of interferons on growth of H0-1 cells (FIG. 3)",
  "format": "cell-based, human",
  "settings": "4 d treatment with 100 U/ml interferon",
  "experimental": "FIG. 3. Effect of interferons on growth of H0-1 cells. Cells were grown for 96 h in the absence or presence of IFN-α (100 and 1000 U/ml), IFN-β (100 and 1000 U/ml) or IFN-γ (100 U/ml) and cell numbers in triplicate plates were determined. Results are the average cell number ±S.D. from the mean.\nTreatment of H0-1 Cells with Interferon Induces Growth Suppression While Enhancing mda-9 Expression. Experiments were performed to determine if a relationship exists between growth suppression and reduced mda-9 expression. To test this connection, the effect of interferon and MEZ treatment on proliferation and mda-9 expression in human melanoma cells was determined. Growth of H0-1 cells in the presence of type I interferon, IFN-α or IFN-β, or type II interferon, IFN-γ, suppresses the growth of H0-1 cells (FIG. 3). […] Under similar experimental conditions, 100 U/ml of IFN-γ reduces growth by ˜43% and 100 U/ml of IFN-α reduces growth by only ˜23%. Unlike IFN-β+MEZ, which reduce mda-9 expression in H0-1 cells, all three interferons enhance mda-9 expression ˜1.9- to ˜4.0-fold based on equalization for GAPDH expression (FIG. 4). In contrast, mda-9 expression is unaffected in H0-1 cells grown for 4 days in 10 ng/ml of MEZ, even though growth is reduced by ˜74% (Table 1 and data not shown).",
  "data": [
    {"substance": "IFN-α: Recombinant human IFN-α (IFN-αA), leukocyte interferon", "values": [
      {"measurement": "reduction of H0-1 growth", "value": "~23", "unit": "%"}
    ]}
  ]
}
